Drawing on US8568736B2, “Polypeptide derivatives of parathyroid hormone (PTH)” (The General Hospital Corporation, priority 1999, dated 2013), this text covers Emax and EC50 for 1 compound.

The structures appear in SMILES notation.

Common to all, as to assay type: cell-based
The target of assay [1] is T1, WT hPTH-1 receptor (Homo sapiens, UniProt Q03431).
T1 construct: encoding the intact hPTH-1 receptor (HK-WT); expressed in transfected cells; host or cells: COS-7, transient, pcDNA-1 plasmid
T1 sequence (Q03431 27-593): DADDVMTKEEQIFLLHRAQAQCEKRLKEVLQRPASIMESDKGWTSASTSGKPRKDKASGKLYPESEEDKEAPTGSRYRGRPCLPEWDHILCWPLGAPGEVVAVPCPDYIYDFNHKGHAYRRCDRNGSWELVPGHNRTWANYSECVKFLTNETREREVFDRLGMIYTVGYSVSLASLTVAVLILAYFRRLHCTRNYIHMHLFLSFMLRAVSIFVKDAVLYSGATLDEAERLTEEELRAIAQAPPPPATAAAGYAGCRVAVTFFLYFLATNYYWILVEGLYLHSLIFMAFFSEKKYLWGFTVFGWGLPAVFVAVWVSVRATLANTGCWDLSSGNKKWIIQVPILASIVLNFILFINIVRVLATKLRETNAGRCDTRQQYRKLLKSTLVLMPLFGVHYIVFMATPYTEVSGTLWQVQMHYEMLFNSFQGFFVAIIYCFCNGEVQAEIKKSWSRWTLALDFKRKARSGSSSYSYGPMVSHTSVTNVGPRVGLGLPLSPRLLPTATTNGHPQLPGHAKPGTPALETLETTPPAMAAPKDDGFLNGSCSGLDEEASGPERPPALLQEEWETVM
Nature of the assay: cAMP stimulation in COS-7 cells transiently transfected with WT hPTH-1 receptor. How it is done: (§1) COS-7 cells were transfected in 24-well plates when the cells were 85 to 95% of confluency using 200 ng of plasmid DNA that was purified by cesium chloride/ethidium bromide gradient centrifugation for each well. Assays were conducted 72 to 96 hours after transfection.
(§2) Stimulation of cells with peptide analogs was performed in 24-well plates. Cells were rinsed with 0.5 mL of binding buffer and treated with 200 μL of cAMP assay buffer (Dulbecco's modified Eagle's medium containing 2 mM 3-isobutyl-1-methylxanthine, 1 mg/mL bovine serum albumin, 35 mM Hepes-NaOH, pH 7.4) and 100 μL of binding buffer containing varying amounts of peptide analog (final volume=300 μL). The medium was removed after incubation for 1 h at room temperature, and the cells were frozen (−80° C.), lysed with 0.5 mL 50 mM HCl, and refrozen (−80° C.). The cAMP content of the diluted lysate was determined by radioimmunoassay. Where possible, cAMP EC50 and Maximum response values were determined using nonlinear regression (see below).
(§3) All calculations were performed using Microsoft Excel. […] The predicted response (yp) for a given dose (x) of peptide was calculated using the following equation: yp=Min+[(Max−Min)/(1+(EC50/x)^slope)]. […] The statistical significance between two data sets was determined using a one-tailed Student's t-test, assuming unequal variances for the two sets.

In assay [2] the target is T2, truncated human PTH-1 receptor, hΔNt (Homo sapiens, UniProt Q03431).
T2 construct: expressed in transfected cells; host or cells: COS-7, transient, pcDNA-1 plasmid derived from HK-WT
T2 sequence (Q03431 with tags, fused parts or gaps limits assumed): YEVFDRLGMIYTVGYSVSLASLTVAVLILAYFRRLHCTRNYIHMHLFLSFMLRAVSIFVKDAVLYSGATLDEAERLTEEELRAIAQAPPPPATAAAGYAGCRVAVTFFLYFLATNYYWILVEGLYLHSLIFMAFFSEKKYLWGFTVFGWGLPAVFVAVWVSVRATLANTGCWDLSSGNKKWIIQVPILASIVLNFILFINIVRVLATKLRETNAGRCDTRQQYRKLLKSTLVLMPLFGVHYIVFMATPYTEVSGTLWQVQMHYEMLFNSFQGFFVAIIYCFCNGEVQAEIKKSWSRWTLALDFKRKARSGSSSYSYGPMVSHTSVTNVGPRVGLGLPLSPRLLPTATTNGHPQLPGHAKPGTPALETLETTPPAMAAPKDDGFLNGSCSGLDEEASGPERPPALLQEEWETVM
Nature of the assay: cAMP stimulation in COS-7 cells transiently transfected with truncated receptor hDeINt. Here is the method:
as §1, §2, §3

Assay [3] deals with T3, rat PTH-1 receptor (endogenous, ROS 17/2.8 cells) (Rattus norvegicus, UniProt P25961).
T3 construct: The rat osteoblastic cell line ROS 17/2.8; endogenous in cells; host or cells: ROS 17/2.8 rat osteoblastic cells
T3 sequence (P25961 27-591): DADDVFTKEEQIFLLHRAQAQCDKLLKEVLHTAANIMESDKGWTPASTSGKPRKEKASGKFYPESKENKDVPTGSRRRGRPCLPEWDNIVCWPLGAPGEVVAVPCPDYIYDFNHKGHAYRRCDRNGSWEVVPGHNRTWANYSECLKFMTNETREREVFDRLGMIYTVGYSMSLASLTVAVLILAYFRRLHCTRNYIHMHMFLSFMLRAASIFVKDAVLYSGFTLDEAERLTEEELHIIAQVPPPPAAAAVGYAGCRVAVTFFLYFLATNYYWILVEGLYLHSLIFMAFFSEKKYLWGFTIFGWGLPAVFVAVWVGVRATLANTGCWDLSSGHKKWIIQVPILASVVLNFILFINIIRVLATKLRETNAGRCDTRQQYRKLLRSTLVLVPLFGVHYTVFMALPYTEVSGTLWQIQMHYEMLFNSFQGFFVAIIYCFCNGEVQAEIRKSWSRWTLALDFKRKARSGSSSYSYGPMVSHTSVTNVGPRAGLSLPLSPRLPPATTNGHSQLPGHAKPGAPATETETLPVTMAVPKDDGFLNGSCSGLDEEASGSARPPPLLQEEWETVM
The assay can be described thus: cAMP response in osteoblastic ROS 17/2.8 cells. How it is done: (§4) The rat osteoblastic cell line ROS 17/2.8 (Majeska, R. J., et al, Endocrinology 107:1494-1503 (1980)) expresses endogenous PTH-1 receptors at levels of 80,000 per cell and the human osteoblastic cell line, SAOS-2, express endogenous PTH-1 receptors at levels of ˜30,000 per cell.
as §2, §3

The target in assay [4] is T4, human PTH-1 receptor (endogenous, SAOS-2 cells) (Homo sapiens, UniProt Q03431).
T4 construct: the human osteoblastic cell line, SAOS-2, express endogenous PTH-1 receptors; endogenous in cells; host or cells: SAOS-2 human osteoblastic cells
T4 sequence (Q03431 27-593): T1 sequence (Q03431 27-593)
Nature of the assay: cAMP response in osteoblastic SAOS-2 cells. Here is the method:
as §4, §2, §3

Assay [5] addresses T5, PTH-1 receptor (Homo sapiens, UniProt Q03431).
T5 sequence (Q03431 27-593): T1 sequence (Q03431 27-593)
Nature of the assay: cAMP stimulation in HKRK-B7 cells (LLC-PK1 stably transfected with hPTH-1 receptor). The arrangement: expressed in transfected cells; host or cells: LLC-PK1 porcine kidney cells, clone HKRK-B7. To be noted: Emax constrained to ±1 SD of rPTH(1-34) response at 100 nM. The text has this: Stably transfected derivatives of the porcine kidney cell line LLC-PK1, HKRK-B7 (Takasu, H., et al., J. Bone Miner. Res. 14:11-20 (1999)) and hPR2-20, express the human PTH-1 and human PTH-2 receptors respectively. The HKRK-B7 LLC-PK1 cell line expresses the hPTH-1 receptor at ˜1×10^6 receptors/cell (Takasu, H., et al., J. Bone Miner. Res. 14:11-20 (1999)), and the hPR2-22 LLC-PK1 cell line expresses the hPTH-2 receptor at ˜0.8×10^6 receptors/cell (provided by H. Takasu and F. R. Bringhurst, Endocrine Unit, Massachusetts General Hospital).
Stimulation of cells with peptide analogs was performed in 24-well plates. […] The cAMP content of the diluted lysate was determined by radioimmunoassay. Where possible, cAMP EC50 and Maximum response values were determined using nonlinear regression (see below).
Intracellular cAMP accumulation may be measured as described by Abou-Samra et al., J. Biol. Chem. 262:1129, 1986) or other methods known to those of skill in the art. Intracellular cAMP is extracted by thawing the cells in 1 ml of 50 mM HCl and analyzed by a specific radioimmunoassay using an anti-cAMP antibody (e.g., Sigma, St. Louis, Mo.). […] The supernatant is removed and the bound radioactivity is counted in a gamma-counter (Micromedic). […]

As a reminder, the EC50 is the concentration that produces a half-maximal response. In the case of `CC[C@H](C)[C@H](NC(=O)[C@H](CCC(=O)O)NC(=O)[C@H](CO)NC(=O)[C@@H](NC(=O)[C@@H](N)CO)C(C)C)C(=O)N[C@@H](CCC(N)=O)C(=O)N[C@@H](CC(C)C)C(=O)N[C@@H](CCSC)C(=O)N[C@@H](Cc1c[nH]cn1)C(=O)N[C@@H](CC(N)=O)C(=O)N[C@@H](CC(C)C)C(=O)NCC(=O)N[C@@H](CCCCN)C(=O)N[C@@H](Cc1c[nH]cn1)C(=O)N[C@@H](CC(C)C)C(=O)N[C@@H](CC(N)=O)C(=O)N[C@@H](CO)C(=O)N[C@@H](CCSC)C(=O)N[C@@H](CCC(=O)O)C(=O)N[C@@H](CCCNC(=N)N)C(=O)N[C@H](C(=O)N[C@@H](CCC(=O)O)C(=O)N[C@@H](Cc1c[nH]c2ccccc12)C(=O)N[C@@H](CC(C)C)C(=O)N[C@@H](CCCNC(=N)N)C(=O)N[C@@H](CCCCN)C(=O)N[C@@H](CCCCN)C(=O)N[C@@H](CC(C)C)C(=O)N[C@@H](CCC(N)=O)C(=O)N[C@@H](CC(=O)O)C(=O)N[C@H](C(=O)N[C@@H](Cc1c[nH]cn1)C(=O)N[C@@H](CC(N)=O)C(=O)N[C@@H](Cc1ccc(O)cc1)C(N)=O)C(C)C)C(C)C` [[Y34]hPTH(1-34), [Tyr^34]human (h)PTH(1-34)NH2, reference compound], the Emax in assay [1] is recorded as 226 ± 30 picomole/well; in assay [2] (hDeINt, Emax constrained to peptide #7 (20 μM) response), 238 ± 20 picomole/well; in assay [3] (ROS 17/2.8 cells), 340 ± 55 picomole/well; in assay [4] it was 307 picomole/well; in assay [5], 270 picomole/well. Further, the EC50 in assay [2] (hDeINt truncated receptor, cAMP) came to 29.1 ± 15.3 µM; in assay [3] it was 0.0003 µM.
